In patent publication US20210101879A1, “AMYLOID PROTEIN-SELECTIVE BACE INHIBITORS (ASBIs) FOR ALZHEIMER?S DISEASE” (The Regents of the University of California, priority 2018, published 2021):
Several values for one entry are separate records, joined by “and”; a condition that tells them apart may be missing. Identical values can stand only once.

By UniProt entry, the sequences of proteins in these tests, tags left out. Residues count along the entry.
UniProt P56817, 46-501 limits assumed: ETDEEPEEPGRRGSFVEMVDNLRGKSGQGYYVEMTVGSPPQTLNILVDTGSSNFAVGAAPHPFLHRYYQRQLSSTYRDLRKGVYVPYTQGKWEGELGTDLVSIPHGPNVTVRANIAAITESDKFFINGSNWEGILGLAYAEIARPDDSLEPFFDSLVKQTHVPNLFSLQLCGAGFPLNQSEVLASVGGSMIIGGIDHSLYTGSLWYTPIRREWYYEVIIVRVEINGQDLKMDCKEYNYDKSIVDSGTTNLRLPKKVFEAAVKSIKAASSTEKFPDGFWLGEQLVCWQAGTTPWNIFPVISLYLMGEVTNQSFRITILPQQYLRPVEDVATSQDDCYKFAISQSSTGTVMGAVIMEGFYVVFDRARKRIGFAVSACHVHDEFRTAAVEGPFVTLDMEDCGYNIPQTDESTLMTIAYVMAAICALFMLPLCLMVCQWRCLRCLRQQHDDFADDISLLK

How the values were obtained:
BACE-1 = BACE-1 (Homo sapiens (Human), UniProt P56817); experiment: cell-free BACE enzyme assay with P5-P5′ substrate; format: biochemical; conditions: for BACE inhibition in the P5-P5′ assay (dose-response): enantiomer peaks of FAH-65
[1] = test system: CHO-7W cells (stably transfected with human amyloid precursor protein wildtype); experiment: CHO-7W cell assay (AlphaLISA of media); format: cell-based, Chinese hamster; conditions: treatment for 24 hours
Description: For the assay, 50 μL of CHO-7W cells were added to each well at 4×10^5 cells/mL. Then, 50 μL of inhibitor, prepared for tested concentrations, were added to appropriated wells and incubated for 24 hours at 37° C. Afterwards, media from each well is collected and assayed using an AlphaLISA assay for respective analytes.

SMILES: Cc1cc(C2(c3cccc(-c4cncnc4)c3)N=C(N)N(C)C2=O)ccc1OC(F)F (single isomer, unassigned)
- BACE inhibition in the P5-P5′ assay (dose-response) (BACE-1; listed as FAH-65 peak 1): dose-response BACE inhibition
- BACE inhibition in the P5-P5′ assay (dose-response) (BACE-1; listed as FAH-65 peak 2): did not
- IC50 (BACE-1; read-out: BACE1 IC50, cell-free, several replicate values per cell, some flagged 's' (flag not defined), listed as FAH-65 Pk2): 5.2 nM and 7.9 nM
- amyloid-beta (Aβ) [1]: dose-response inhibition
- soluble amyloid precursor protein beta (sAPPβ) [1]: dose-response inhibition
